Results as given in article PMC6767919 (European journal of pharmacology, 2019).

Sequences of proteins named here, by UniProt entry; tags and fusion partners are left off. Residues count along the entry.
UniProt P28335, 33-458: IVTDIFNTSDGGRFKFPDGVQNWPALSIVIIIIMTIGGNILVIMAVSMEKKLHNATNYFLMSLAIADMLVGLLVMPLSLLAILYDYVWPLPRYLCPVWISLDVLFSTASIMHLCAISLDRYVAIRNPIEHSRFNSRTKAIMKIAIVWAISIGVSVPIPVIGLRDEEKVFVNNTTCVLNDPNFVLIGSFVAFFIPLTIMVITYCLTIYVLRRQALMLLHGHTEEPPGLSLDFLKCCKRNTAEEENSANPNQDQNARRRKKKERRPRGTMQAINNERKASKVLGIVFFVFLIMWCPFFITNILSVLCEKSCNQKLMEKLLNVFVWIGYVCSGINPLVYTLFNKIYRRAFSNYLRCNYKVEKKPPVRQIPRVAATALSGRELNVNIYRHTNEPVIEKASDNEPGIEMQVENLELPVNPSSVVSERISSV

Target: 5-HT2C receptor (Homo sapiens, UniProt P28335)
Experiment: Inverse agonist reduction of basal 5-HT2C-mediated IP production
Assay type: cell-based

IC50 [nM] | Structure (SMILES) | pIC50, inositol phosphate reduction (CHO-K1 cells, basal 5-HT2C-mediated IP production after 20 h of vehicle, n = 3)
– | Cn1ccc2cc3c(cc21)CCN3C(=O)Nc1cccnc1 [SB 206553] | 7.77 ± 0.02
24 | CN1C[C@@H](NS(=O)(=O)N(C)C)C[C@@H]2c3cccc4c3c(cn4C)C[C@H]21 [mesulergine] | –
